According to patent US11702401B2, “Compounds and methods of use” (Medivation Technologies LLC, priority 2014, dated 2023):

Tested on: p-SMAD2
Experiment: p-SMAD2 inhibition, Western blot, TGFβ-stimulated MDA-MB-231 cells
Type: cell-based
Conditions: TGFβ 2 ng/mL, triplicate; for Average p-SMAD2 inhibition @ 0.1 μM (% Inh) / inhibition at 0.1 µM: 0.1 μM compound; for Average p-SMAD2 inhibition @ 0.5 μM (% Inh) / inhibition at 0.5 µM: 0.5 μM compound; for inhibition at 0.1 µM / inhibition at 0.5 µM: Homo sapiens; for inhibition at 0.1 µM: read-out: Average p-SMAD2 inhibition @ 0.1 μM (% Inh); for inhibition at 0.5 µM: read-out: Average p-SMAD2 inhibition @ 0.5 μM (% Inh)

Compound	Average p-SMAD2 inhibition @ 0.1 μM (% Inh)	Average p-SMAD2 inhibition @ 0.5 μM (% Inh)	inhibition at 0.1 µM [%]	inhibition at 0.5 µM [%]
CC(=O)NCCNC(=O)c1cnccc1Nc1cc(-c2cc(Cl)ccc2F)ncc1C(C)C [compound 14, N-(2-acetamidoethyl)-4-[[2-(5-chloro-2-fluoro-phenyl)-5-isopropyl-4-pyridyl]amino]pyridine-3-carboxamide]	45.00	–	–	–
CC(C)c1cnc(-c2cc(Cl)ccc2F)cc1Nc1ccncc1C(=O)NCCN [compound 19, N-(2-aminoethyl)-4-[[2-(5-chloro-2-fluoro-phenyl)-5-isopropyl-4-pyridyl]amino]pyridine-3-carboxamide]	–	93.00	–	–
C=C(C)c1cnc(-c2cc(Cl)ccc2F)cc1Nc1ccncc1C(=O)N[C@H](C)CO [7b, (2R)-4-[[2-(5-chloro-2-fluoro-phenyl)-5-isopropenyl-4-pyridyl]amino]-N-(2-hydroxy-1-methyl-ethyl)pyridine-3-carboxamide]	36.33	78.67	–	–
C=C(C)c1cnc(-c2cc(Cl)ccc2F)cc1Nc1ccncc1C(=O)NCC(C)O (single isomer, unassigned) [3a]	–	78.00	–	–
C=C(C)c1cnc(-c2cc(Cl)ccc2F)cc1Nc1ccncc1C(=O)N[C@@H](CC)CO (single isomer, unassigned) [24a]	17.00	–	–	–
CC(C)c1cnc(-c2cc(Cl)ccc2F)cc1Nc1ccncc1C(=O)NC[C@H](C)O [2a, (S)-4-[[2-(5-chloro-2-fluoro-phenyl)-5-isopropyl-4-pyridyl]amino]-N-(2-hydroxypropyl)pyridine-3-carboxamide]	–	–	26.3	77.7
C=C(C)c1cnc(-c2cc(Cl)ccc2F)cc1Nc1ccncc1C(=O)NCCO [compound 26, 4-[[2-(5-chloro-2-fluoro-phenyl)-5-isopropenyl-4-pyridyl]amino]-N-(2-hydroxyethyl)pyridine-3-carboxamide]	64.00	89.00	–	–
COc1cnc(-c2cc(Cl)ccc2F)cc1Nc1ccncc1C(=O)NC[C@H](C)O (single isomer, unassigned) [13a]	–	–	59	93.7
CCc1cnc(-c2cc(Cl)ccc2F)cc1Nc1ccncc1C(=O)NC[C@H](C)O (single isomer, unassigned) [11a]	–	–	44.7	96
CC(C)c1cnc(-c2cc(Cl)ccc2F)cc1Nc1ccncc1C(=O)NC(CO)CO [compound 22, 4-[[2-(5-chloro-2-fluoro-phenyl)-5-isopropyl-4-pyridyl]amino]-N-[2-hydroxy-1-(hydroxymethyl)ethyl]pyridine-3-carboxamide]	50.00	–	–	–
CC(C)c1cnc(-c2cc(Cl)ccc2F)cc1Nc1ncncc1C(=O)NC[C@H](C)O (single isomer, unassigned) [12a]	–	–	64.3	93
C=C(C)c1cnc(-c2cc(Cl)ccc2F)cc1Nc1ccncc1C(=O)N[C@@H](C)CO [7a, (S)-4-(2-(5-chloro-2-fluorophenyl)-5-(prop-1-en-2-yl)pyridin-4-ylamino)-N-(1-hydroxypropan-2-yl)nicotinamide]	74.33	99.33	–	–
